# Values quoted from earlier work, collected in PMC10018702 (Nature chemistry, 2022).
# Tested on: eEF1A-mutant (A399V) HCT116 cells
# Conditions: cited from earlier work
substance,measurement,value
ternatin-4 [reference compound],activity toward eEF1A Ala399Val homozygous human cancer cell line,inactive
